Values joined by “and” are separate entries in the source; they are usually repeats but may differ in a detail not shown here. Equal entries are not always repeated. The list shows a part of the results, in another mix than the full data. Records with an inconclusive call do not appear. Active and inactive are the calls of the source. Unless noted, calls follow the shape of the dose curve; as a rule, active = well fitted curve in the direction sought with a large enough effect; inconclusive = small, poorly fitted or top-dose-only effect, or another doubt; inactive = no such curve, though single readings can be large; an effect the other way counts as inactive or inconclusive.
Columns and labels:
[1] = qHTS assay for cell viability of HEK293 cells (AID 743288); conditions: ATP luminescence (CellTiter-Glo), 18 h, stronger effect = lower value; also: % is scaled to controls: 0 for no effect and ±100 for the full control effect; nearly all actives have a fitted effect of over 50% in size
In short: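 Readout is luciferase-coupled ATP content (CellTiter-Glo luminescence, 30 min room temperature) as a measure of metabolically competent cells. Parental HEK293 cells were plated 5 h or more before compound addition, then treated 18 h at 37 C.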

Amino acid sequences for entries named in this document (tags omitted).
UniProt P16066, whole entry: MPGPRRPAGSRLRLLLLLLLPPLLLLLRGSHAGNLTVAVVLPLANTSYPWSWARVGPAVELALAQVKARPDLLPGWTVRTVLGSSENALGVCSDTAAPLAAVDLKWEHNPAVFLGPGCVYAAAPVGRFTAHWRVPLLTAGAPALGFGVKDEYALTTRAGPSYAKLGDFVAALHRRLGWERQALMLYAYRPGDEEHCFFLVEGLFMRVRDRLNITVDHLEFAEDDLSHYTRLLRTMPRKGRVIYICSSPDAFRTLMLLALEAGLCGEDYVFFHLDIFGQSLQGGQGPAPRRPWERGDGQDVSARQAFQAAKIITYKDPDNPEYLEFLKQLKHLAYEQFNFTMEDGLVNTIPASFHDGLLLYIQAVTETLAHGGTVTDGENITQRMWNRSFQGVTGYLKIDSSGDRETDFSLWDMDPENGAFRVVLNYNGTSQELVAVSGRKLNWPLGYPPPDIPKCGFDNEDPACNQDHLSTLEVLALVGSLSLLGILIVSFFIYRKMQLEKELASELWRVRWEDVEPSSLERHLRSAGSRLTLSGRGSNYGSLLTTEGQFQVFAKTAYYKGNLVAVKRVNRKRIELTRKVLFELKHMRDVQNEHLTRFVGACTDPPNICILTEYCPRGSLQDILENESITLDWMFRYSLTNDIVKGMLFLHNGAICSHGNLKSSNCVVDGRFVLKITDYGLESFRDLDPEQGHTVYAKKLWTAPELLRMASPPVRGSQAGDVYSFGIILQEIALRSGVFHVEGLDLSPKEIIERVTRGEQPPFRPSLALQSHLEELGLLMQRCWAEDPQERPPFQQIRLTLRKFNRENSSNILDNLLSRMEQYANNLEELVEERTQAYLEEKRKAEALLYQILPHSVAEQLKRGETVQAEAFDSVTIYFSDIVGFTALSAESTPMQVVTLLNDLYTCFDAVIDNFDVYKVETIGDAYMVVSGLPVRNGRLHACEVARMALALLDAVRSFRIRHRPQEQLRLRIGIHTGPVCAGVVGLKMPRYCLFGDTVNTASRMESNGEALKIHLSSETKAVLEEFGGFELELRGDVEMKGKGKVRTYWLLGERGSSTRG
UniProt P20594, whole entry: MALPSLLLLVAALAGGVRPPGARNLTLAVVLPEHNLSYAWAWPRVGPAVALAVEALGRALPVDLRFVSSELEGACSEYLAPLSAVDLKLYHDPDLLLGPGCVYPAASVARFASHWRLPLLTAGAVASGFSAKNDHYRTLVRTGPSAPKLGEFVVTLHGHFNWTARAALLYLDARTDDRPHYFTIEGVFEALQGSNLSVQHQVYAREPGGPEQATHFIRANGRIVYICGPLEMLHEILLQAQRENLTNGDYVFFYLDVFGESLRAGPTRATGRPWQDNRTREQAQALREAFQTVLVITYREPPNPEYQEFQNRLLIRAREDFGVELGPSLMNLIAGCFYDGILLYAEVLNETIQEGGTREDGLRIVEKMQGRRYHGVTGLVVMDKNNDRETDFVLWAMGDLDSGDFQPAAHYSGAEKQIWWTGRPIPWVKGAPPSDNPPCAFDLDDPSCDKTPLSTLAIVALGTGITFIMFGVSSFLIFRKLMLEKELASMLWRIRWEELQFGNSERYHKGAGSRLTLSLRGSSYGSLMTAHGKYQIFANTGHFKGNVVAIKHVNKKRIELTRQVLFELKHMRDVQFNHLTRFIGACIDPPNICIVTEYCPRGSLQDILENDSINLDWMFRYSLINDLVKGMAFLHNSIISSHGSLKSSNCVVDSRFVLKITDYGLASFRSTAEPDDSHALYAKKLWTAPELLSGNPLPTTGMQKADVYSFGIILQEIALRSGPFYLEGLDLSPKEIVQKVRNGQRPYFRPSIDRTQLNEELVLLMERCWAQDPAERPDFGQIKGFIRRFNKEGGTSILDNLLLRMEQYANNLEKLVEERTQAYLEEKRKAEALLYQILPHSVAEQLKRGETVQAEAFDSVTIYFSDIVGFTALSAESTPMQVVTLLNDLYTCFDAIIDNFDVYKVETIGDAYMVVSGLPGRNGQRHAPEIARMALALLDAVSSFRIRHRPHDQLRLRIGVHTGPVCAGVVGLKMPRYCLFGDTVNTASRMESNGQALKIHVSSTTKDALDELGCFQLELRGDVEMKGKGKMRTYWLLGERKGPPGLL
UniProt Q03431, whole entry: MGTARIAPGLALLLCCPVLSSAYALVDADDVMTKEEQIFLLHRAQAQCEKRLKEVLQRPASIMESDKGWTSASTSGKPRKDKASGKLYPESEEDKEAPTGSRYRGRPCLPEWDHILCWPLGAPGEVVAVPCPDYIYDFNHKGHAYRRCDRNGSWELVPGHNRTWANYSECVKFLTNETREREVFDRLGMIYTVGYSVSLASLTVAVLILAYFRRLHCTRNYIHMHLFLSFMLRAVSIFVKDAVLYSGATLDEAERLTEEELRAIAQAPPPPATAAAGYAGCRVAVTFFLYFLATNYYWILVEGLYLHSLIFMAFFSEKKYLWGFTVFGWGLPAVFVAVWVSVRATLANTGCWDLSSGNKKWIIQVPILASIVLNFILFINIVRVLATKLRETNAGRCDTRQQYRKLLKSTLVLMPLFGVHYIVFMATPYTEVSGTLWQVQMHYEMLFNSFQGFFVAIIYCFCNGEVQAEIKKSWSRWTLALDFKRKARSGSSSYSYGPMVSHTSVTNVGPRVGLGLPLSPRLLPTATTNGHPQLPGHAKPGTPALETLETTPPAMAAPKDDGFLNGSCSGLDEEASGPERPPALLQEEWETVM

[2] = qHTS assay for cell viability of the p53RE-bla HCT-116 cell line (AID 743292); conditions: p53RE-bla HCT-116 viability, ATP luminescence, 16 h; at 95 µM (top of the series); also: % is scaled to controls: 0 for no effect and ±100 for the full control effect; nearly all actives have a fitted effect of over 55% in size
In short: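 CellSensor p53RE-bla HCT-116 cells, 4,000/well, preincubated 5 h at 37 C, then exposed to compounds in DMSO for 16 h at 37 C. Viability read as CellTiter-Glo luminescence (intracellular ATP) after 30 min at room temperature.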

[3] = qHTS Assay for Identifying Gametocytocidal Compounds (AID 743244);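 also: % is scaled to controls: 0 for no effect and ±100 for the full control effect; actives lower the fluorescent signal which means gametocytes are killed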; conditions: P. falciparum 3D7 stage III-V gametocytes, alamarBlue, 72 h; stronger effect = lower value
[4] = qHTS assay to identify small molecule inhibitors of chordoma cells - UCH-2 (AID 1259356); conditions: UCH-2 chordoma viability, CellTiter-Glo ATP luminescence, 48 h; at 46.1 µM (top of the series) unless noted; also: % is scaled to controls: 0 for no effect and ±100 for the full control effect
Excerpt: NIH Chemical Genomics Center [NCGC]
Chordoma is a rare and slow growing tumor that can occur anywhere along the spine, from the base of the skull to the tailbone. Current treatment options for chordoma is surgery and radiation therapy for those who are not candidates for surgery. But chordomas tend to return in the same location or surrounding areas of the original tumor after surgery and/or radiation. Chemotherapy can slow down the progression of the tumor. As chordoma is slow growing, the general cytotoxic agents that kill fast growing cells are ineffective, and some patients have been reported to respond to molecularly targeted drugs.
NCATS Pharmaceutical Collection (NPC) containing approximately 3000 clinically approved and investigational drugs were used to screen at 15 concentrations in a chordoma cell lines, UCH-2, to identify small molecule compounds that can inhibit chordoma cell growth.
NCGC Assay Protocol Summary:
Human chordoma cell line UCH-2 was dispensed at 800 per well in 4uL of culture medium into white solid bottom 1536-well plates (Corning Life Sciences, Corning, NY) using a Multidrop Combi (Thermo Scientific, Waltham, MA) dispenser. The assay plates were incubated at 37 C and 5% CO2 for an overnight, and then 23nL of compounds dissolved in DMSO and positive control were transferred using a Pintool station (Wako, San Diego, CA). Compound treatment was followed by the addition of 1uL of the combination compounds (1uM Auranofin, 500nM each of Camptothecin, Doxorubicin, Rubitecan, and Topotecan) and assay medium to each well of the assay plates using Flying Reagent Dispenser (FRD, Aurora Discovery, San Diego, CA). The assay plates were incubated at 37 C and 5% CO2 for 48hr. Then 5uL of CellTiter-Glo reagent (Promega Corporation, Madison, WI) was added to each well of the assay plates using FRD. After 30min incubation at room temperature, the luminescence signal was quantified using a ViewLux plate reader (PerkinElmer, Shelton, CT).

[5] = qHTS assay for small molecule antagonists of the retinoid-related orphan receptor gamma (ROR-gamma) signaling pathway - cell viability counter screen (AID 720652; active = well fitted curve in the direction sought with a large enough effect in the repeat runs; an effect the other way counts as inactive or inconclusive;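 also: CHO reporter cells with doxycycline-induced ROR-gamma expression; compound exposure lasted 16 hr before ATP read; % is scaled to controls: 0 for no effect and ±100 for the full control effect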); conditions: RORgamma reporter cell line viability counter screen; at 92.2 µM (top of the series)
[6] = High-throughput drug toxicity screening in the BPDCN cell line Gen2.2 (AID 1224824; call rule not given here;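 also: cells exposed to compounds for 48 h before reading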); conditions: Gen2.2 BPDCN cells; at 23.2 µM (top of the series)
In short: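 CellTiter-Glo luminescence read after 48 h compound exposure at 37 C defines viability; percent activity set with DMSO as 100% and bortezomib (9.2 uM final) as 0%. 500 exponentially growing cells per well, RPMI plus 10% FBS.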

[7] = High-throughput drug toxicity screening in the BPDCN cell line Cal-1 (AID 1224825; call rule not given here); conditions: Cal-1 BPDCN cell viability, qHTS; at 23.2 µM (top of the series)
In short: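 Percent activity derived from CellTiter-Glo luminescence, scaling DMSO to 100% and 9.2 uM final bortezomib to 0%. BPDCN Cal-1 cells (500/well, RPMI plus 10% FBS) incubated with compounds 48 hours at 37C before reading.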

[8] = qHTS Screen of the MIPE 4.0 Collection Against Ewings Sarcoma (TC71) (AID 1259253); conditions: TC71 Ewing sarcoma viability, CellTiter-Glo, 48 h; also: potency is read from the fitted curve at half-maximal effect; nearly all actives have a fitted effect of over 40% in size
In short: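 Cells plated in serum-containing RPMI (5% FBS) and treated with compound dilutions for 48 h. Readout luminescent viability; normalization relied on vehicle (no inhibition) and media-only columns (full inhibition).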

[9] = qHTS of pediatric cancer cell lines to identify multiple opportunities for drug repurposing: Primary screen for TC32 cells (AID 1347089); conditions: TC32 Ewing sarcoma viability, CellTiter-Glo luminescence, 48 h; at 45.8 µM (top of the series) unless noted; also: % is scaled to controls: 0 for no effect and ±100 for the full control effect; nearly all actives have a fitted effect of over 60% in size
In short: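 Luminescent ATP read-out (CellTiter-Glo) of metabolically active TC32 cells after 48 h exposure. Concentration-response curves came from 11-point (MIPE, 0.78 nM–46 µM) or 8-point (NPC, 0.59 nM–46 µM) primary titrations; follow-up used 11 points.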

[10] = qHTS of pediatric cancer cell lines to identify multiple opportunities for drug repurposing: Primary screen for SJ-GBM2 cells (AID 1347091); conditions: SJ-GBM2 viability, CellTiter-Glo luminescence, 48 h; at 46 µM (top of the series) unless noted;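 also: plate controls were DMSO neutral control for no effect and bortezomib for full effect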
In short: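 Cell viability, CellTiter-Glo luminescence; 500-1,000 cells/well, 8- or 11-point titration, 48 h compound exposure at 37 degrees C, 5% CO2. Controls: DMSO neutral, bortezomib 2.3 µM final as positive.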

[11] = qHTS of pediatric cancer cell lines to identify multiple opportunities for drug repurposing: Primary screen for SK-N-MC cells (AID 1347093); conditions: SK-N-MC viability, CellTiter-Glo luminescence, 48 h; series mostly up to 46 µM;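 also: plate controls were DMSO neutral control for no effect and bortezomib for full effect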
[12] = qHTS of pediatric cancer cell lines to identify multiple opportunities for drug repurposing: Primary screen for BT-37 cells (AID 1347094); conditions: BT-37 viability, CellTiter-Glo luminescence, 48 h; at 57.3 µM (top of the series) unless noted;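 also: plate controls were DMSO for no effect and bortezomib for full effect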
In short: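 Luminescence from CellTiter-Glo served as readout of metabolically active cells after 48 h compound exposure. Titrations: MIPE 11-point, from 0.78 nM; NPC 8-point, from 0.59 nM (final). Concentration-response curves came straight from the primary screen.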

[13] = qHTS of pediatric cancer cell lines to identify multiple opportunities for drug repurposing: Primary screen for U-2 OS cells (AID 1347096); conditions: U-2 OS viability, CellTiter-Glo luminescence, 48 h; at 46 µM (top of the series) unless noted;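 also: plate controls were DMSO wells for no effect and bortezomib positive control wells for full effect; nearly all actives have a fitted effect of over 50% in size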
In short: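 Cells (500-1,000/well) rested 5 h, then received compounds for 48 h; metabolically active cells were measured by CellTiter-Glo luminescence. Final concentrations spanned up to 46 µM (MIPE, 11-point) or 0.59 nM-46 µM (NPC, 8-point) in primary screens, 11-point in follow-ups.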

[14] = molecular target: Atrial natriuretic peptide receptor 1 (Homo sapiens) (UniProt P16066); test: Natriuretic polypeptide receptor (hNpr1) antagonism - Pilot screen (AID 1347049; calls by dose curve;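 also: HEK293 cells with hNpr1 and GloSensor cGMP luciferase stimulated by 0.1 nM hNppA; agonist-evoked cGMP luminescence read 20 min after hNppA addition; % is scaled to controls: 0 for no effect and ±100 for the full control effect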); conditions: hNpr1 cells, antagonist mode cGMP read-out; at 57.5 µM (top of the series)
In short: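 Receptor antagonism read as cGMP-dependent luminescence in hNpr1/pGS-40F HEK293 cells: pre-read after 30 min compound exposure, post-read 20 min after hNppA agonist at 0.1 nM final, all at room temperature, protected from light; A-71915 titration as control.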

[15] = molecular target: Atrial natriuretic peptide receptor 2 (Homo sapiens) (UniProt P20594); test: Natriuretic polypeptide receptor (hNpr2) antagonism - Pilot subtype selectivity assay (AID 1347050; calls by dose curve; also: % is scaled to controls: 0 for no effect and ±100 for the full control effect); conditions: NPR2-expressing cells, cGMP antagonist-mode read-out; at 38.3 µM (top of the series)
In short: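 Antagonist mode: compounds (LOPAC1280, seven 1:5 dilutions) added 30 min before 1 nM hNppC stimulation of hNpr2-HEK293 cGMP-sensor cells; luminescence read before and 20 min after agonist at ambient temperature.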

[16] = molecular target: Parathyroid hormone/parathyroid hormone-related peptide receptor (Homo sapiens) (UniProt Q03431); test: qHTS for PTHR1 Agonists: Optimization Screen against the NCGC LOPAC library (AID 1347079); conditions: HEK293 GP2 PTHR1 GloSensor cAMP luminescence, 1 h; at 57.1 µM (top of the series);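 also: GloSensor cAMP luminescence in HEK-293 GP2 cells expressing human PTHR1 with IBMX; 0% is about no effect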
In short: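 Signal increase flags agonism. GP2 cells, derived from HEK-293, express human PTHR1 and a GloSensor cAMP construct.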

[17] = qHTS of pediatric cancer cell lines to identify multiple opportunities for drug repurposing: Primary screen for A673 cells (AID 1347092); conditions: A673 Ewing sarcoma viability, CellTiter-Glo ATP luminescence, 48 h; at 46 µM (top of the series) unless noted; also: % is scaled to controls: 0 for no effect and ±100 for the full control effect; nearly all actives have a fitted effect of over 45% in size
In short: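 Cell viability of A673 measured by CellTiter-Glo ATP luminescence after 48 hours compound exposure. Dilution series spanned 0.78 nM to 46 µM (MIPE, 11-point) or 0.59 nM to 46 µM (NPC, 8-point); bortezomib 2.3 uM positive control.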

CCOP(=S)(CC)Oc1cc(Cl)c(Cl)cc1Cl (stereo not drawn)
max response [1]: inactive: -13.3% | activity change, negative = cytotoxicity [2]: inactive: -16.7%

O=[N+]([O-])OCC(CO[N+](=O)[O-])(CO[N+](=O)[O-])CO[N+](=O)[O-]
max response [3]: inactive: 5.49% | activity change, negative = inhibition [4]: inactive: 0.819%

CC(C)N(CCCl)C(C)C
max response [3]: inactive: -2.13%

Cc1ccc([N+](=O)[O-])cc1[N+](=O)[O-]
activity change, negative = cytotoxicity [5]: inactive: 7.94% | max response [1]: inactive: -9.46% and inactive: 1.2% | activity change, negative = cytotoxicity [2]: inactive: 4.43% and inactive: -4.41%

CC1=C2[N-][C@@](C)([C@@H]3N=C(C(C)=C4N=C(C=C5N=C1[C@@](C)(CC(N)=O)[C@H]5CCC(N)=O)C(C)(C)[C@H]4CCC(N)=O)[C@](C)(CCC(=O)NC[C@@H](C)OP(=O)([O-])O[C@H]1[C@@H](O)[C@@H](n4cnc5cc(C)c(C)cc54)O[C@H]1CO)[C@H]3CC(N)=O)[C@@](C)(CC(N)=O)[C@@H]2CCC(N)=O.[C-]#N.[Co+3]
cell viability, % of control (lower = more cytotoxic) [6]: 102% | viability (% of control) [7]: 99.8% | Potency [8]: active: 8.12 µM | activity change, negative = cytotoxic [9]: inactive: 3.61% [at 16 µM] | activity change, negative = cytotoxic [10]: inactive: -15.8% [at 16.1 µM] | Potency [11]: inactive | activity change, negative = cytotoxic [12]: inactive: -2.49% [at 20.1 µM] | activity change, negative = cytotoxic [13]: inactive: -16% [at 16.1 µM]

O=[N+]([O-])[O-].[NH4+]
activity change, negative = cytotoxicity [5]: inactive: 4.71% | max response [3]: inactive: 16.2% | max response [1]: inactive: 7.15% | activity change, negative = cytotoxicity [2]: inactive: 7.18% | activity change, negative = inhibition [4]: inactive: 21.4%

CCOP(=O)(CC)OCC
activity change, negative = cytotoxicity [5]: inactive: -0.856% | max response [1]: inactive: 8.31% | activity change, negative = cytotoxicity [2]: inactive: 7.95%

CC(C)OP(=O)(F)OC(C)C
max response [3]: inactive: -7.14% | activity change, negative = inhibition [4]: inactive: -0.995%

N#[O+].[C-]#N.[C-]#N.[C-]#N.[C-]#N.[C-]#N.[Fe+2].[Na+].[Na+]
activity change, negative = inhibition [14]: inactive: 20.3% | activity change, negative = inhibition [15]: inactive: 10.7% | activation [16]: inactive: -31.2%

CN(C)CCS
max response [3]: inactive: -3.52% | activity change, negative = inhibition [4]: inactive: -3.07%

C/C1=C2N=C(/C=C3N=C(/C(C)=C4\[N-][C@@](C)([C@@H]5N=C1[C@](C)(CCC(=O)NC[C@@H](C)OP(=O)([O-])O[C@H]1[C@@H](O)[C@@H](n6cnc7cc(C)c(C)cc76)O[C@@H]1CO)[C@H]5CC(N)=O)[C@@](C)(CC(N)=O)[C@@H]4CCC(N)=O)[C@@](C)(CC(N)=O)[C@@H]\3CCC(N)=O)C(C)(C)[C@@H]/2CCC(N)=O.[C-]#N.[Co+3]
max response [3]: inactive: 11.6% | activity change, negative = inhibition [4]: inactive: 3.81% [at 20.6 µM] | activity change, negative = cytotoxic [9]: inactive: -13.3% | activity change, negative = cytotoxic [10]: inactive: -4.12% | activity change, negative = cytotoxic [17]: inactive: -18.6% | Potency [11]: inactive | activity change, negative = cytotoxic [13]: inactive: -13.8%

Reference: PubChem BioAssay (NCATS)
